High-throughput results from PubChem BioAssay.
TDP1 inh: inhibitors of human tyrosyl-DNA phosphodiesterase TDP1; AID 485290; recombinant TDP1, AlphaScreen DNA substrate cleavage; 350,000 tested, 0.28% active; Q9NUW8; Potency, µM (titrated, usually from 130 µM), inactives show at the highest dose activity change, negative = inhibition, hits mostly inhibitors; note: potency is the fitted concentration of half-maximal effect; % is set by controls: 0 for no effect and ±100 for the full control effect; nearly all actives have a fitted effect of over 40% in size
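Here, a 5' biotin and 3' phosphotyrosine-FITC DNA oligonucleotide reports Tdp1 activity: intact substrate bridges AlphaScreen beads, while cleavage leaves a 3' phosphate and drops signal. All incubations at room temperature.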
DT40 TDP1 no CPT: qHTS for Inhibitors of human tyrosyl-DNA phosphodiesterase 1 (TDP1): qHTS in cells in absence of CPT. Potency, µM (doses to about 46.2 µM), without a hit: at the top dose activity change, negative = growth inhibition, hits mostly inhibitors. 420,000 tested, 15% active. DT40 Tdp1-/- hTDP1 cells, no CPT, ATP luminescence, 48 h; note: potency is the fitted concentration of half-maximal effect; % is set by controls: 0 for no effect and ±100 for the full control effect; nearly all actives have a fitted effect of over 55% in size
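Seeded 400 DT40-hTDP1 cells/well (vehicle DMSO, no 20 nM CPT); pinned compounds; ≥48 hr at 37 °C; CellTiter-Glo luminescence as viability measure.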
miR-21 reporter: raises the signal of a miR-21 reporter | HeLa miR-21 FLuc reporter, luciferase, 48 h | Potency, µM (doses to about 38.3 µM), for the others: at the highest dose reporter change, positive = more light | 340,000 tested, under 10 active | AID 2288; active = well fitted rising curve with a large enough effect; inconclusive = small, poorly fitted or top-dose-only effect; inactive = no such curve, though single readings can be large or run the other way;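 also: % of control where 0% means no effect; miR-21 action dims this reporter so a rising signal means less miR-21 action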
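HeLa cells endogenously expressing miR-21, stably carrying CMV-driven firefly luciferase with a downstream miR-21 binding site, 2000 cells/well. Titrations up to approximately 40 uM, 48 hours; luciferase luminescence read.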
uPA generation: cell surface uPA generation inhibition; cell surface uPA generation assay, qHTS; 330,000 tested, 0.31% active; Potency, µM (series often up to 38.3 µM), inactives show at the highest dose activity change, negative = inhibition, most hits filed as inhibitors; active = well fitted inhibition curve with a large enough effect; inconclusive = small, poorly fitted or top-dose-only effect; inactive = no such curve, though single readings can be large or run the other way; tested in mouse RAW 264.7 cells; note: potency is the fitted concentration of half-maximal effect; % is set by controls: 0 for no effect and ±100 for the full control effect; nearly all actives have a fitted effect of over 55% in size
DT40 TDP1 CPT: DT40-hTDP1 cell growth loss with CPT | chicken DT40 Tdp1-/-;hTDP1 cells + 20 nM CPT, ATP luminescence, 48 h | Potency, µM (top dose mostly 46.2 µM), for inactives: top-dose activity change, negative = growth inhibition, usual class: inhibitors | 420,000 tested, 12% active | AID 686979; note: potency is the fitted concentration of half-maximal effect; % is set by controls: 0 for no effect and ±100 for the full control effect; nearly all actives have a fitted effect of over 55% in size
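Cell growth measured by CellTiter-Glo luminescence after a minimum 48 h, 37 C compound exposure with 20 nM CPT in Tdp1-knockout DT40 cells stably expressing hTDP1, seeded 400/well; qHTS titration format.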
Active calls of the source: *; u = inconclusive; x = no result; [ ] = dose if it differs, or a comment. Compounds with a hit are over-represented: about 16% of the library has one in this group of screens. Unless noted, calls come from the whole dose curve; as a rule, active = well fitted curve in the direction sought with a large enough effect; inconclusive = small, poorly fitted or top-dose-only effect, or another doubt; inactive = no such curve, though single readings can be large; an effect the other way counts as inactive or inconclusive.

SMILES | TDP1 inh | DT40 TDP1 no CPT | miR-21 reporter | uPA generation | DT40 TDP1 CPT
CCOC(=O)C1(Cc2cccc(OC)c2)CCN(CCO)CC1 | x | 0.1% | 0.2% | 0.1% | 1.1%
CC1(C(=O)NS(=O)(=O)c2ccccc2C(F)(F)F)CCN1C(=O)COc1ccc(Cl)cc1 (centres undefined) | x | -9.9% | x | x | 10.5%
Cc1ccccc1NC(=O)COc1ccc(Br)cc1C | 2.8% | u | -55.7% | 1.8% | -8.3%
Cc1ccccc1CN1C(=O)CN(S(C)(=O)=O)CC1(C)C(=O)NCc1ccccc1 (centres undefined) | x | -6.4% | x | x | -5.6%
CC(C)CCNC(=O)CN(C(=O)CCC(=O)Nc1nccs1)C1CCCCC1 | 1.1% | -20.4% | -5.5% | x | -5.5%
O=C(c1ccc(F)cc1)N1C2CCC1CC(O)(c1ccc(F)cc1)C2 (centres undefined) | 3.1% | -11.9% | -4.1% | -0.4% | -4.8%
O=C1CSC(=Nc2ccc(O)cc2)N1c1ccc(O)cc1 | 3.4% | 9.2% | 0.1% | -6.8% | -2.4%
Cc1ccc(N2C(=O)CS/C2=N\C(=S)Nc2ccccc2)cc1 | x | 5.8µM* | -0.3% | -4.6% | u
O=C(NN1c2ccccc2CCc2ccccc21)c1ccccc1Br | -1.0% | u | -6.3% | 3.2% | 20.6µM*
CNC(=O)N1c2ccccc2CCc2ccccc21 | x | u | 7.3% | 17.3% | -23.5%
COc1cc(/C=C2\SC(=Nc3ccccc3)N(CCc3c[nH]c4ccccc34)C2=O)ccc1OC(C)C(=O)O (centres undefined) | 0.0% | u | -0.8% | 2.7% | u
O=C1/C(=C/c2ccc(N3CCOCC3)o2)SC(=Nc2ccccc2)N1CCc1c[nH]c2ccccc12 | 10.3% | 2.06µM* | u | -9.0% | 2.91µM*

5 records drawn at random from those above, as already listed:
SMILES | TDP1 inh | DT40 TDP1 no CPT | miR-21 reporter | uPA generation | DT40 TDP1 CPT
CC1(C(=O)NS(=O)(=O)c2ccccc2C(F)(F)F)CCN1C(=O)COc1ccc(Cl)cc1 (centres undefined) | x | -9.9% | x | x | 10.5%
CC(C)CCNC(=O)CN(C(=O)CCC(=O)Nc1nccs1)C1CCCCC1 | 1.1% | -20.4% | -5.5% | x | -5.5%
CCOC(=O)C1(Cc2cccc(OC)c2)CCN(CCO)CC1 | x | 0.1% | 0.2% | 0.1% | 1.1%
CNC(=O)N1c2ccccc2CCc2ccccc21 | x | u | 7.3% | 17.3% | -23.5%
O=C(c1ccc(F)cc1)N1C2CCC1CC(O)(c1ccc(F)cc1)C2 (centres undefined) | 3.1% | -11.9% | -4.1% | -0.4% | -4.8%

Profiles as entered above.
Cc1ccccc1NC(=O)COc1ccc(Br)cc1C across the screens: TDP1 inh = 2.8%; DT40 TDP1 no CPT = u; miR-21 reporter = -55.7%; uPA generation = 1.8%; DT40 TDP1 CPT = -8.3%
CNC(=O)N1c2ccccc2CCc2ccccc21 across the screens: TDP1 inh = x; DT40 TDP1 no CPT = u; miR-21 reporter = 7.3%; uPA generation = 17.3%; DT40 TDP1 CPT = -23.5%

Next structures.
SMILES | TDP1 inh | DT40 TDP1 no CPT | miR-21 reporter | uPA generation | DT40 TDP1 CPT
CN(C)Cc1c(O)ccc2c1O/C(=C\C=C\c1ccccc1)C2=O | x | -15.0% | -4.5% | -2.3% | -29.4%
O=C(COC(=O)c1cccs1)Nc1cccc(S(=O)(=O)N2CCOCC2)c1 | 1.1% | 1.9% | -7.3% | 5.1% | 0.8%
O=C(N/N=C/c1ccc(O)cc1O)c1ccc(CN2C(=O)c3cccc4cccc2c34)cc1 | 6.0% | 3.66µM* | 14.4% | -15.9% | 4.61µM*
Cc1cc([N+](=O)[O-])nn1Cc1ccc(C(=O)N/N=C/c2ccc(O)cc2O)cc1 | 5.3% | u | 27.3% | 7.08µM* | u
Cc1cc([N+](=O)[O-])nn1Cc1ccc(C(=O)N/N=C/c2ccc(F)cc2)cc1 | 4.2% | -19.4% | 4.2% | -8.1% | 3.0%
CC(Sc1nnnn1C1CC1)C(=O)N1CC(=O)Nc2ccccc21 (centres undefined) | 3.0% | 11.9% | x | 0.9% | 14.5%
CCCCC1(CO)C(=O)N(c2ccccc2)N(c2ccccc2)C1=O | 2.6% | u | -6.7% | -7.4% | u
CCCCC1(Br)C(=O)N(c2ccccc2)N(c2ccccc2)C1=O | 2.9% | 16.4µM* | x | 5.5% | u
COc1cccc(NC(=O)C(=O)NCC(c2cccnc2)N2CCN(c3ccccc3)CC2)c1 (centres undefined) | 2.6% | 18.4µM* | 3.2% | x | u
Cc1cc(C)cc(NC(=O)C(=O)NCC(c2cccnc2)N2CCN(c3ccccc3)CC2)c1 (centres undefined) | 3.9% | 16.4µM* | -3.3% | x | 20.6µM*
COC(=O)c1ccc(NC(=O)C(=O)NCC(c2cccnc2)N2CCN(c3ccccc3)CC2)cc1 (centres undefined) | 9.3% | -18.9% | 1.6% | x | -19.8%
O=C(/C=C/c1ccccc1)N(Cc1ccc(Cl)cc1)C1CCS(=O)(=O)C1 (centres undefined) | 1.3% | u | -3.0% | 0.9% | -3.3%
CCn1c2ccccc2c2cc(NC(=O)C(C)C)ccc21 | 2.0% | 25.9µM* | -20.4% | -11.7% | u
CCOc1c(/C=C(\C#N)C(N)=O)c2ccccc2n1CC | 5.4% | u | -2.7% | 0.0% | u
CCn1c2ccccc2c2cc(NC(=O)N3CCCCC3)ccc21 | x | 23.1µM* | x | x | 18.4µM*
CCn1c2ccccc2c2cc(NS(=O)(=O)c3ccccc3C)ccc21 | 10.5% | 20.6µM* | 13.0% | -8.8% | u
CCCC(=O)Nc1ccc2c(c1)c1ccccc1n2CC | -2.8% | u | 5.8% | -9.6% | u
CCn1c2ccccc2c2cc(NC(=O)C(C)Oc3ccccc3)ccc21 (centres undefined) | 3.2% | u | -0.1% | 2.6% | -25.5%
CCOC(=O)/C(C#N)=C\c1c(OCC)n(CC)c2ccccc12 | 4.2% | 18.4µM* | 8.4% | -17.2% | u
O=C(O)c1c2c(nc3ccccc13)/C(=C/c1c(F)cccc1F)CCC2 | 4.8% | -1.9% | -26.8% | 0.8% | 13.9%
CC1=C(C)CC(C(=O)Nc2cccc([N+](=O)[O-])c2)C(C(=O)O)C1 (centres undefined) | 3.4% | -16.2% | -1.2% | -2.9% | -6.5%
CCOc1ccc2c(c1)c(=O)c(S(=O)(=O)c1ccc(CC)cc1)cn2C | 4.5% | -2.6% | -1.0% | 3.8% | -15.5%
O=C(CSc1nc2cc(S(=O)(=O)N3CCOCC3)ccc2o1)NC1CCCc2ccccc21 (centres undefined) | 9.1% | u | 1.5% | 4.9% | u
Cc1cc(C)c(S(=O)(=O)NC2CC2)c(C)c1 | 3.5% | -7.5% | -4.9% | 5.9% | -0.2%
CCOC(=O)C(=CNc1ccc2c(c1)c1ccccc1n2CC)C(=O)OCC | -2.4% | 8.2µM* | -1.3% | 4.0% | 14.6µM*
CC(=O)c1c(C)[nH]c(C(=O)NCC2CCCCC2)c1C | 9.9% | -8.6% | -44.5% | -18.2% | -2.3%
COc1ccccc1CC(=O)Nc1ncc(C)s1 | x | 16.4µM* | -1.1% | -11.1% | u
COC(=O)c1cc2sc(C)cc2n1Cc1cccc(OC)c1 | -2.9% | 23.1µM* | 17.0% | x | u
COc1cccc(CC(=O)Nc2ncc(C)s2)c1 | 1.2% | 14.6µM* | -6.9% | -2.9% | 8.2µM*
Cc1cnc(NC(=O)Cc2c[nH]c3ccccc23)s1 | 11.5% | -12.4% | -18.9% | x | -8.6%
COc1cccc(CC(=O)Nc2nc(C)cs2)c1 | -1.2% | -11.8% | -43.6% | -0.5% | -22.5%
COC(=O)c1cc2sc(C)cc2n1Cc1ccccc1 | -4.9% | u | -1.7% | x | u
Cc1ccccc1NC(=O)c1ccc(F)c(S(=O)(=O)NCC2CCCO2)c1 (centres undefined) | 0.5% | 17.2% | 1.6% | 4.4% | -1.9%
Cc1nn(C)c(C)c1NC(=O)Nc1ccc(Cl)c(Cl)c1 | 0.0% | u | 3.1% | 3.2% | -20.2%
CN(C)/C=N/c1ncnc2c1cnn2-c1ccc(C(F)(F)F)cn1 | 2.8%[56.1 µM] | 3.1% | -47.4% | -4.1% | 2.8%
CCCCn1c(-c2csc(CC)c2)n[nH]c1=S | 5.3% | u | -0.8% | 7.8% | 20.6µM*
